This note sets out measurements from ChEMBL document CHEMBL1135372, “3-Aryl pyridone derivatives. Potent and selective kappa opioid receptor agonists” (Bioorg Med Chem Lett, 2002).

The chains behind the UniProt entries cited, without tags or fusion partners.
UniProt P35372, whole entry, looked up: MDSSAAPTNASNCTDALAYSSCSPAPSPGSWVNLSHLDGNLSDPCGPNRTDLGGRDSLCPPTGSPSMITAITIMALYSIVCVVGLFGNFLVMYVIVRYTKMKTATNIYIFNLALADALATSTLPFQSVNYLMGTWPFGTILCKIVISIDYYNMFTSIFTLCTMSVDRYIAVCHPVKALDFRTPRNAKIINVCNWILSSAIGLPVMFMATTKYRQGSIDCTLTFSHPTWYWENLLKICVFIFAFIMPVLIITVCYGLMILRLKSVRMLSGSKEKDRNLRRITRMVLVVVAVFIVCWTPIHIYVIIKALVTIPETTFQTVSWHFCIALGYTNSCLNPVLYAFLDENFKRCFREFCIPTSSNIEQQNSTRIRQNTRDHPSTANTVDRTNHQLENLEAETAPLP
UniProt P41143, whole entry, looked up: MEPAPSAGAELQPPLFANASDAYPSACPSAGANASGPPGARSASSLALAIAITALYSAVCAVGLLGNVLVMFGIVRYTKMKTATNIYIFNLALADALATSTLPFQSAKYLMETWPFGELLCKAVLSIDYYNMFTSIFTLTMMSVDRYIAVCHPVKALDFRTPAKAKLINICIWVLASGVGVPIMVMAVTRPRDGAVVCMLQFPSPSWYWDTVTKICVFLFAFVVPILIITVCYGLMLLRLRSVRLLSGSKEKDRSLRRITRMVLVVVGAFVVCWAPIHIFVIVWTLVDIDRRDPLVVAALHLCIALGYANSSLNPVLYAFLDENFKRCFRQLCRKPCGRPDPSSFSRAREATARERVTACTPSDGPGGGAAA

One assay addresses Mu-type opioid receptor (Homo sapiens, UniProt P35372).
Assay [1] addresses Delta-type opioid receptor (Homo sapiens, UniProt P41143). Description: Binding affinity towards Opioid receptor delta 1 by the displacement of [125I]-Deltorphin.

As to `CN(C(=O)Cc1ccccc1)[C@H]1CC[C@@]2(CCCO2)C[C@@H]1N1CCCC1`, the 50% inhibitory concentration (IC50) against Mu-type opioid receptor was 0.248 µM; in assay [1] it was 5.84 µM.
